How the values were obtained:
[1] = biological target: T1, ACVRL1 (Homo sapiens, UniProt P37023); test: Promega NanoBRET live-cell target engagement, ACVRL1; details: NanoBRET ACVRL1 IC50 (μM), in cellulo; NI = No inhibition at 40 μM
[2] = biological target: T1, ACVRL1; test: ThermoFisher (Lantha) kinase assay, inhibition of ACVRL1; assay type: biochemical; parameters: purchased ThermoFisher; details: in vitro, NA = not active at 1 μM
[3] = biological target: T2, ACVR1 (Homo sapiens, UniProt Q04771); test: ThermoFisher (Lantha) kinase assay, inhibition of ACVR1; assay type: biochemical; details: in vitro
T2 construct: purchased ThermoFisher
T2 sequence (Q04771 21-509): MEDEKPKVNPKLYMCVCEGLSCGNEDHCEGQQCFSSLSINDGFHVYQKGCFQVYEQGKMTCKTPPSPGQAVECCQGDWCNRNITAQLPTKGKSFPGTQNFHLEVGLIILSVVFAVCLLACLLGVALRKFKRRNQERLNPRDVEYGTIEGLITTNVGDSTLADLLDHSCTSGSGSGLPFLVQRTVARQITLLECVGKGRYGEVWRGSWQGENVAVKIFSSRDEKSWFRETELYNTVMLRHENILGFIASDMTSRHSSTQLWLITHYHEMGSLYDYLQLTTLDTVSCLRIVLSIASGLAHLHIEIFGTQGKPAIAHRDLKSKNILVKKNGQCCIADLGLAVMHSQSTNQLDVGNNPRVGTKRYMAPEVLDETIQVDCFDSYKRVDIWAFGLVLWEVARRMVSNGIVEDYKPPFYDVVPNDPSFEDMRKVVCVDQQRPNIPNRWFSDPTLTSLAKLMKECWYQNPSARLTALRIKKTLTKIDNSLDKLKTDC

The chains behind the UniProt entries cited, without tags or fusion partners. Residues count along the entry.
UniProt P37023, 22-503: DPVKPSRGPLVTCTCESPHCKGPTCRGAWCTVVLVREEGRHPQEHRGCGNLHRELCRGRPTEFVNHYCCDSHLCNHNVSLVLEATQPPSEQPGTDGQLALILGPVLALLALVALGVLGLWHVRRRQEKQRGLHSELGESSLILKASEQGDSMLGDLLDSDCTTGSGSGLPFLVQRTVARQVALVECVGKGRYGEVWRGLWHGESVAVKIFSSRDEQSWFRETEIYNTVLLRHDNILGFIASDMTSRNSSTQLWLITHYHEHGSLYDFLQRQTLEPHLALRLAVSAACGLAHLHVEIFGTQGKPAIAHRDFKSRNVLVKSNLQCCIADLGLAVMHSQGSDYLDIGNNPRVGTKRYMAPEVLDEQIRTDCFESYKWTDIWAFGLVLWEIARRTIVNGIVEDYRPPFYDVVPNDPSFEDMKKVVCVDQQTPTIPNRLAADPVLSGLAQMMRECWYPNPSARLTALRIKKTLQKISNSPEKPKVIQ

| Structure (SMILES) | IC50 [1] [µM] | IC50 [2] [nM] | IC50 [3] [nM] |
| --- | --- | --- | --- |
| COc1cc(F)cc(-c2nc3ccc(C(=O)NCCCN(C)C)cc3n2C2CCC2)c1 [CDD-2617, 1-cyclobutyl-N-(3-(dimethylamino)propyl)-2-(3-fluoro-5-methoxyphenyl)-1H-benzo[d]imidazole-6-carboxamide] | > 40 | 170 | 49 |
| COc1cc(-c2nc3ccc(C(=O)NCCCN4CCN(c5ccccc5)C(=O)C4)cc3n2C2CCC2)cc(OC)c1OC [CDD-2790, 1-cyclobutyl-N-(3-(3-oxo-4-phenylpiperazin-1-yl)propyl)-2-(3,4,5-trimethoxyphenyl)-1H-benzo[d]imidazole-6-carboxamide] | > 40 | 40.8 | 8.5 |
| CNC(=O)[C@H]1C[C@H](n2c(-c3cccc(OC)c3)nc3ccc(C(=O)NCCCN4CCN(c5ccccc5)CC4)cc32)C1 [CDD-2313, 2-(3-methoxyphenyl)-1-((1r,3r)-3-(methylcarbamoyl)cyclobutyl)-N-(3-(4-phenylpiperazin-1-yl)propyl)-1H-benzo[d]imidazole-6-carboxamide] | > 40 | 198 | 16 |
| CNC(=O)[C@H]1C[C@H](n2c(-c3cc(OC)c(OC)c(OC)c3)nc3ccc(C(=O)NCCCN(C)C)cc32)C1 [CDD-2281, N-(3-(dimethylamino)propyl)-1-((1r,3r)-3-(methylcarbamoyl)cyclobutyl)-2-(3,4,5-trimethoxyphenyl)-1H-benzo[d]imidazole-6-carboxamide] | > 40 | 15.6 | 14.6 |
| CNC(=O)[C@H]1C[C@H](n2c(-c3cc(OC)c(OC)c(OC)c3)nc3ccc(C(=O)NCC4CCN(C)CC4)cc32)C1 [CDD-2282, 1-((1r,3r)-3-(methylcarbamoyl)cyclobutyl)-N-((1-methylpiperidin-4-yl)methyl)-2-(3,4,5-trimethoxyphenyl)-1H-benzo[d]imidazole-6-carboxamide] | > 40 | 16.5 | 16.4 |
| COc1cc(-c2nc3ccc(C(=O)NCCN4CCN(C5CCCCC5)CC4)cc3n2C2CCC2)cc(OC)c1OC [CDD-2794, 1-cyclobutyl-N-(2-(4-cyclohexylpiperazin-1-yl)ethyl)-2-(3,4,5-trimethoxyphenyl)-1H-benzo[d]imidazole-6-carboxamide] | > 40 | 11.2 | 10.2 |

Next, values leading:

| IC50 [1] [µM] | IC50 [2] [nM] | IC50 [3] [nM] | Structure (SMILES) |
| --- | --- | --- | --- |
| > 40 | 390 | 20.5 | CNC(=O)[C@H]1C[C@H](n2c(-c3cc(F)cc(OC)c3)nc3ccc(C(=O)NCCCN4CCN(c5ccccc5)CC4)cc32)C1 [CDD-2340, 2-(3-fluoro-5-methoxyphenyl)-1-((1r,3r)-3-(methylcarbamoyl)cyclobutyl)-N-(3-(4-phenylpiperazin-1-yl)propyl)-1H-benzo[d]imidazole-6-carboxamide] |
| > 40 | 10.9 | 4.2 | COc1cc(-c2nc3ccc(C(=O)NCCCN4CCN(c5ccccc5)CC4)cc3n2C2CCC2)cc(OC)c1OC [CDD-2315, 1-cyclobutyl-N-(3-(4-phenylpiperazin-1-yl)propyl)-2-(3,4,5-trimethoxyphenyl)-1H-benzo[d]imidazole-6-carboxamide] |
| 8.55 | 4.2 | 3.4 | COc1cc(-c2nc3ccc(C(=O)NCC4(O)CCN(Cc5ccccc5)CC4)cc3n2C2CCC2)cc(OC)c1OC [CDD-2795, N-((1-benzyl-4-hydroxypiperidin-4-yl)methyl)-1-cyclobutyl-2-(3,4,5-trimethoxyphenyl)-1H-benzo[d]imidazole-6-carboxamide] |
| 32.6 | 9.2 | 9 | COc1cc(-c2nc3ccc(C(=O)NCCCN4CCN(C)C(c5ccccc5)C4)cc3n2C2CCC2)cc(OC)c1OC (stereo not drawn) [CDD-2793, 1-cyclobutyl-N-(3-(4-methyl-3-phenylpiperazin-1-yl)propyl)-2-(3,4,5-trimethoxyphenyl)-1H-benzo[d]imidazole-6-carboxamide] |

Reference: patent publication US20260217660A1, “INHIBITORS OF ACTIVIN RECEPTOR TYPE I (ACVRI) AND ACTIVIN RECEPTOR LIKE TYPE I (ACVRLI), AND METHODS USING SAME” (Baylor College of Medicine, priority 2023, published 2026)
